Protein sequences, listed by entry. Tags and fused reporters are not part of them.
UniProt P35372, whole entry: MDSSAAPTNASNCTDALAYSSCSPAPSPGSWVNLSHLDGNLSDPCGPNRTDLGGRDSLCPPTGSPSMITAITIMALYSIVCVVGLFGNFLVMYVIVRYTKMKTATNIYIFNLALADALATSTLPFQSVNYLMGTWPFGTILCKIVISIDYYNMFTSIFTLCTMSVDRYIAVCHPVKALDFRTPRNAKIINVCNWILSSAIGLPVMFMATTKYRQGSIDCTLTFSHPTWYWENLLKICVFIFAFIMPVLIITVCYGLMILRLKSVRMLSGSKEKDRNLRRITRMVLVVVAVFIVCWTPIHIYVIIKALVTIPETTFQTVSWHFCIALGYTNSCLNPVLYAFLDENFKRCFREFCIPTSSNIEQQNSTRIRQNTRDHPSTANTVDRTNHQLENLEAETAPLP
UniProt P41143, whole entry: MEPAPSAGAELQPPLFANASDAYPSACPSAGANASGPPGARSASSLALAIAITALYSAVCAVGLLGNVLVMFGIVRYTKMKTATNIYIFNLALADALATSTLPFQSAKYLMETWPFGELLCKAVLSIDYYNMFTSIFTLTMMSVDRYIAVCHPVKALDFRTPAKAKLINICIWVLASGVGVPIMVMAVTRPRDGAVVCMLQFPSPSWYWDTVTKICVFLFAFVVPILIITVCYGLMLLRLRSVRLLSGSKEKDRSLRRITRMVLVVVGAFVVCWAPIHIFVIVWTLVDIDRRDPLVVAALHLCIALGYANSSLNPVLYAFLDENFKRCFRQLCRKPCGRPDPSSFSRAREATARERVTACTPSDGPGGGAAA
UniProt P41145, whole entry: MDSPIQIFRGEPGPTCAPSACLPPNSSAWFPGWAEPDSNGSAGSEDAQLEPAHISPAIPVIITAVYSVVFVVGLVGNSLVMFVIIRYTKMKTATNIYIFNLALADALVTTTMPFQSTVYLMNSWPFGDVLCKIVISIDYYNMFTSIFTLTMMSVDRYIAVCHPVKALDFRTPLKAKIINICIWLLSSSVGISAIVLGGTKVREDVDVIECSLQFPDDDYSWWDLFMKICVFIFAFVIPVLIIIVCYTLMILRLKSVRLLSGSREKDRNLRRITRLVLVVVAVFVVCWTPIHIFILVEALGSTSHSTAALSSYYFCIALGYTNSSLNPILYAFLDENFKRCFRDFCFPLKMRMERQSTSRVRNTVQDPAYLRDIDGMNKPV

According to ChEMBL document CHEMBL3639331, “Buprenorphine analogs” (2015):

Key:
Mu-type opioid receptor = Mu-type opioid receptor (Homo sapiens, UniProt P35372); test: Binding Assay: u-Opioid Receptor Binding Assay Procedures: Radioligand dose-displacement binding assays for u-opioid receptors used 0.3 nM [3H]-diprenorphine (Perkin Elmer, Shelton, Conn.), with […] membrane protein/well in a final volume of 500 ul binding buffer (10 mM MgCl2, 1 mM EDTA, 5% DMSO, 50 mM HEPES, pH 7.4). Reactions were carried out in the absence or presence of increasing concentrati
[1] = molecular target: Delta-type opioid receptor (Homo sapiens, UniProt P41143); test: Binding Assay: Delta-Opioid Receptor Binding Assay Procedures: delta-opioid Receptor Binding Assay Procedures were conducted as follows. Radioligand dose-displacement assays used 0.3 nM [3H]-Naltrindole (Perkin Elmer, Shelton, Conn.; 33.0 Ci/mmole) with 5 ug membrane protein (Perkin Elmer, Shelton, Conn.) in a final volume of 500 ul binding buffer (5 mM MgCl2, 5% DMSO, 50 mM Trizma base, pH 7.4).
[2] = molecular target: Kappa-type opioid receptor (Homo sapiens, UniProt P41145); test: Binding Assay: Kippa-Opioid Receptor Binding Assay Procedures: Membranes from recombinant HEK-293 cells expressing the human kippa opioid receptor (kippa) (cloned in house) were prepared by lysing cells in ice cold hypotonic buffer (2.5 mM MgCl2, 50 mM HEPES, pH 7.4) (10 mL/10 cm dish) followed by homogenization with a tissue grinder/Teflon pestle. Membranes were collected by centrifugation at 30,; conditions: sf9

Row | SMILES | Ki (Mu-type opioid receptor) | Ki [1] | Ki [2]
1 | CO[C@]12CC[C@@]3(C[C@@H]1CNC(=O)[C@@H](N)CC(=O)O)[C@H]1Cc4ccc(O)c5c4[C@@]3(CCN1CC1CC1)[C@H]2O5 | 4.89 nM | 60.4 nM | 3.05 nM
2 | CO[C@]12CC[C@@]3(C[C@@H]1CNC(=O)CN)[C@H]1Cc4ccc(O)c5c4[C@@]3(CCN1CC1CC1)[C@H]2O5 |  | 16.2 nM | 0.07 nM
3 | CO[C@]12CC[C@@]3(C[C@@H]1CNC(=O)[C@@H](N)Cc1ccc(O)cc1)[C@H]1Cc4ccc(O)c5c4[C@@]3(CCN1CC1CC1)[C@H]2O5 |  |  | 0.13 nM
4 | CO[C@]12CC[C@@]3(C[C@@H]1CNS(=O)(=O)c1ccc(C)cc1)[C@H]1Cc4ccc(O)c5c4[C@@]3(CCN1CC1CC1)[C@H]2O5 |  |  | 0.07 nM
5 | CO[C@]12CC[C@@]3(C[C@@H]1CNC(=O)[C@@H](N)Cc1c[nH]cn1)[C@H]1Cc4ccc(O)c5c4[C@@]3(CCN1CC1CC1)[C@H]2O5 |  | 58.8 nM | 
6 | CO[C@]12CC[C@@]3(C[C@@H]1CNS(=O)(=O)c1ccccc1)[C@H]1Cc4ccc(O)c5c4[C@@]3(CCN1CC1CC1)[C@H]2O5 |  |  | 0.08 nM
7 | COC12CC[C@@]3(C[C@@H]1CNC(=O)CCCCC(N)=O)[C@H]1Cc4ccc(O)c5c4[C@@]3(CCN1CC1CC1)[C@H]2O5 |  |  | 0.47 nM
8 | CO[C@]12CC[C@@]3(C[C@@H]1CNC(=O)[C@H](CO)NC(C)=O)[C@H]1Cc4ccc(O)c5c4[C@@]3(CCN1CC1CC1)[C@H]2O5 |  | 20.3 nM | 
9 | COC12CC[C@@]3(C[C@@H]1CNC(=O)Nc1ccccc1)[C@H]1Cc4ccc(O)c5c4[C@@]3(CCN1CC1CC1)[C@H]2O5 |  |  | 0.08 nM
